Results as given in patent publication US9056836B2, “Benzomorphan analogs and the use thereof” (Purdue Pharma L.P., priority 2013, dated 2015).

Amino acid sequences for entries named in this document (tags omitted).
UniProt P35372, whole entry: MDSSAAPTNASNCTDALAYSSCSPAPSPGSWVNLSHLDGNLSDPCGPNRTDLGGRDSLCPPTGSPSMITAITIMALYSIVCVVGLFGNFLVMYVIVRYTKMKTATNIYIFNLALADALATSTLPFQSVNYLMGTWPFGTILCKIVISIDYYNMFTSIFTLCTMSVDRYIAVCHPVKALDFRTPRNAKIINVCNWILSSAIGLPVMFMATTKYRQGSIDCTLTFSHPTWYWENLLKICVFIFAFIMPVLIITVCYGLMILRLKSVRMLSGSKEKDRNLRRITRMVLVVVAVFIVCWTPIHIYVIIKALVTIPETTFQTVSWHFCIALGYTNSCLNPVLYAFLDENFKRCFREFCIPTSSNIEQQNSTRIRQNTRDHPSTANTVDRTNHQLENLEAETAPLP
UniProt P41145, whole entry: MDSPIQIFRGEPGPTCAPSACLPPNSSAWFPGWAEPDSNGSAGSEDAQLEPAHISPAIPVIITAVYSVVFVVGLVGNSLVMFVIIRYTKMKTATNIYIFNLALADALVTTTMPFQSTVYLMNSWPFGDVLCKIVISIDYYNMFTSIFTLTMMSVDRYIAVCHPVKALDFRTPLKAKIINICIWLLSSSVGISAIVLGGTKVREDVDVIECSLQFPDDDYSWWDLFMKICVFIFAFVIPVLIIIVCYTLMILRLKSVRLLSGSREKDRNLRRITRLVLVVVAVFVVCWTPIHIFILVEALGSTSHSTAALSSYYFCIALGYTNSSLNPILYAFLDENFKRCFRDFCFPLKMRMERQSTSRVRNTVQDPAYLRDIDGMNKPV

Tests used:
[1] = molecular target: T1, μ-opioid receptor (Homo sapiens (Human), UniProt P35372); assay: μ-opioid receptor [35S]GTPγS functional assay; type: biochemical; conditions: tested form: TFA salt
Procedure: μ-Opioid Receptor Functional Assay Procedures: [^35S]GTPγS functional assays were conducted using freshly thawed μ-receptor membranes (Perkin Elmer, Shelton, Conn.). Assay reactions were prepared by sequentially adding the following reagents to binding buffer (100 mM NaCl, 10 mM MgCl2, 20 mM HEPES, pH 7.4) on ice (final concentrations indicated): membrane protein (0.026 mg/mL), saponin ([…]), GDP ([…]) and [^35S]GTPγS (0.20 nM; Perkin Elmer, Shelton, Conn.). The prepared membrane solution (190 μl/well) was transferred to 96-shallow well polypropylene plates containing 10 μl of 20× concentrated stock solutions of the agonist [D-Ala^2, N-methyl-Phe^4 Gly-ol^5]-enkephalin (DAMGO) prepared in dimethyl sulfoxide (DMSO). Plates were incubated for 30 min at about 25° C. with shaking. Reactions were terminated by rapid filtration onto 96-well Unifilter GF/B filter plates (Perkin Elmer, Shelton, Conn.) using a 96-well tissue harvester (Perkin Elmer, Shelton, Conn.) followed by three filtration washes with 200 μl of ice-cold wash buffer (10 mM NaH2PO4, 10 mM Na2HPO4, pH 7.4). Filter plates were subsequently dried at 50° C. for 2-3 hr, BetaScint scintillation cocktail (Perkin Elmer, Shelton, Conn.) was added (50 μl/well) and plates were counted using a Packard Top-Count for […]. Data were analyzed using the sigmoidal dose-response curve fitting functions in GraphPad PRISM™; v. […]

[2] = molecular target: T2, κ opioid receptor (Homo sapiens (Human), UniProt P41145); assay: κ-opioid receptor radioligand dose-displacement binding assay ([3H]-U69,593); conditions: read-out: Ki (nM) Opioid Receptor κ; binding affinity, recombinant κ opioid receptor expressed in HEK 293 cells; tested form: TFA salt
Procedure: κ-opioid Receptor Binding Assay Procedures: Membranes from recombinant HEK-293 cells expressing the human κ opioid receptor (cloned in house) were prepared by lysing cells in ice cold hypotonic buffer (2.5 mM MgCl2, 50 mM HEPES, pH 7.4) (10 mL/10 cm dish) followed by homogenization with a tissue grinder/Teflon pestle. Membranes were collected by centrifugation at 30,000× g for 15 min at 4° C. and pellets were resuspended in hypotonic buffer to a final concentration of 1-3 mg/mL. Protein concentrations were determined using the BioRad protein assay reagent with bovine serum albumen as standard. Aliquots of κ receptor membranes were stored at −80° C.
Radioligand dose displacement assays used 0.4 nM [^3]-U69,593 (GE Healthcare, Piscataway, N.J.; 40 Ci/mmole) with 15 μg membrane protein (recombinant κ opioid receptor expressed in HEK 293 cells; in-house prep) in a final volume of 200 μl binding buffer (5% DMSO, 50 mM Trizma base, pH 7.4). Non-specific binding was determined in the presence of 10 μM unlabeled naloxone or U69,593. All reactions were performed in 96-well polypropylene plates for 1 hr at a temperature of about 25° C. […] Fifty μl/well scintillation cocktail (Perkin Elmer, Shelton, Conn.) was added and plates were counted in a Packard Top-Count for 1 min/well. Data were analyzed using the sigmoidal dose-response curve fitting functions in GraphPad PRISM™ v. […]

[3] = molecular target: T1, μ-opioid receptor; assay: μ-opioid receptor radioligand dose-displacement binding assay ([3H]-diprenorphine); conditions: read-out: Ki (nM) Opioid Receptor μ; binding affinity, μ-opioid receptor membranes; tested form: TFA salt
Procedure: μ-opioid Receptor Binding Assay Procedures: Radioligand dose-displacement binding assays for μ-opioid receptors used 0.3 nM [^3H]-diprenorphine (Perkin Elmer, Shelton, Conn.), with […] membrane protein/well in a final volume of 500 μl binding buffer (10 mM MgCl2, 1 mM EDTA, 5% DMSO, 50 mM HEPES, pH 7.4). Reactions were carried out in the absence or presence of increasing concentrations of unlabeled naloxone. All reactions were conducted in 96-deep well polypropylene plates for 2 hr at room temperature. Binding reactions were terminated by rapid filtration onto 96-well Unifilter GF/C filter plates (Perkin Elmer, Shelton, Conn.), presoaked in 0.5% polyethylenimine using a 96-well tissue harvester (Perkin Elmer, Shelton, Conn.) followed by performing three filtration washes with 500 μl of ice-cold binding buffer. Filter plates were subsequently dried at 50° C. for 2-3 hours. BetaScint scintillation cocktail (Perkin Elmer, Shelton, Conn.) was added (50 μl/well), and plates were counted using a Packard Top-Count for 1 min/well. The data were analyzed using the one-site competition curve fitting functions in GraphPad PRISM™ v. 3.0 or higher (San Diego. Calif.), or an in-house function for one-site competition curve-fitting.

[4] = molecular target: T2, κ opioid receptor; assay: κ-opioid receptor [35S]GTPγS functional assay; conditions: tested form: TFA salt
Procedure: κ-Opioid Receptor Functional Assay Procedures: Functional [^35S]GTPγS binding assays were conducted as follows, k opioid receptor membrane solution was prepared by sequentially adding final concentrations of 0.026 μg/μl κ membrane protein (in-house), 10 μg/mL saponin, 3 μM GDP and 0.20 [^35S]GTPγS to binding buffer (100 mM NaCl, 10 mM MgCl2, 20 mM HEPES, pH 7.4) on ice. The prepared membrane solution (190 μl/well) was transferred to 96-shallow well polypropylene plates containing 10 μl of 20× concentrated stock solutions of agonist prepared in DMSO. Plates were incubated for 30 min at a temperature of about 25° C. with shaking. Reactions were terminated by rapid filtration onto 96-well Unifilter GF/B filter plates (Perkin Elmer, Shelton, Conn.) using a 96-well tissue harvester (Packard) and followed by three filtration washes with 200 μl ice-cold binding buffer (10 mM NaH2PO4, 10 mM Na2HPO4, pH 7.4). Filter plates were subsequently dried at 50° C. for 2-3 hours. Fifty μl/well scintillation cocktail (Perkin Elmer, Shelton, Conn.) was added and plates were counted in a Packard Top-Count for 1 min/well. Data were analyzed using the sigmoidal dose-response curve fitting functions in GraphPad PRISM™ v. 3.0, or an in-house function for non-linear, sigmoidal dose-response curve-fitting. […]

NC(=O)CCC[C@]12CCN(CC3CC3)[C@H](Cc3ccc(O)cc31)/C2=C\C(=O)O
GTPγS μ Emax ([1]; maximal effect relative to DAMGO): 56.00 ± 5.20%
EC50 ([1]; read-out: GTPγS μ EC50, μ GTP EC50): 0.296 µM
Ki [2]: 33.1 nM
Ki [3]: 621 nM
GTPγS κ Emax ([4]; maximal effect relative to U69,593): 86.67 ± 2.03%
EC50 ([4]; read-out: GTPγS κ EC50, κ GTP EC50): 0.918 µM
